The record followed here is US4474790A, “Thioalkylamide of nicotinic acid 1-oxide, its salts, and pharmaceutical compositions” (SANOFI, priority 1981, dated 1984).

Chains of the proteins cited; added tags and fusions are not shown.
UniProt P47747, whole entry: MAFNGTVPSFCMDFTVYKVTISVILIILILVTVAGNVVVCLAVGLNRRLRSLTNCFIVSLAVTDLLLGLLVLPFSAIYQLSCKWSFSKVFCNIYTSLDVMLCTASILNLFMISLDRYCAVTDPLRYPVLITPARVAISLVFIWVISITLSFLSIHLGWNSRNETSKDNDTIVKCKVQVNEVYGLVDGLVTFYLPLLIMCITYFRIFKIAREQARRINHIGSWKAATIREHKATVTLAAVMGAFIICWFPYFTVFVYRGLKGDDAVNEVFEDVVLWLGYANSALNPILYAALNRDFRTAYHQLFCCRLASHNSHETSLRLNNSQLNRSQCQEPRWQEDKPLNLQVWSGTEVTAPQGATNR

A word on the IC50: it is the concentration that gives 50% inhibition. A high value points to weaker potency.

For experiment [1], the target named is T1, cardiac histamine H2 receptor (Cavia porcellus, UniProt P47747).
T1 construct: isolated right atrium of the Guinea pig; from tissue; host or cells: isolated guinea pig right atrium
The arrangement: species or system guinea pig.

In experiment [2] the target is T2, gastric histamine H2 receptor (Cavia porcellus, UniProt P47747).
T2 construct: isolated stomach mucous membrane of the Guinea pig; from tissue; host or cells: isolated guinea pig stomach mucous membrane
Also noted: species or system guinea pig.

In the case of `CN/C(=N/CCSCc1nc[nH]c1C)NC#N` [cimetidine, 2-cyano-1-methyl-3-[2[(5-methylimidazol-4-yl)methylthio]ethyl]guanidine, reference compound], the IC50 in experiment [1] was 0.4 µM; in experiment [2] it was 6.6 µM.
